Experimental data published in patent publication US20250059274A1, “ANTI-FRa ANTIBODY, AND ANTIBODY-DRUG CONJUGATE AND USE THEREOF” (Bio-Thera Solutions, Ltd., priority 2021, published 2025).

Amino acid sequences for entries named in this document (tags omitted). Chains listed by the source or under a name are the forms on record and can include a tag or linker. Residues count along the entry.
UniProt P35846, 25-232: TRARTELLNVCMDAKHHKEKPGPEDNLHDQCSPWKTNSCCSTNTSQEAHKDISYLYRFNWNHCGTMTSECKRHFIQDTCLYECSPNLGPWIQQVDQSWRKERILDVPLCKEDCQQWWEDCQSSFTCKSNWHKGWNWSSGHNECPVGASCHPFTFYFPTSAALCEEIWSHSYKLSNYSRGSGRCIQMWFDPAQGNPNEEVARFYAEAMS
UniProt Q9JL02, 20-255: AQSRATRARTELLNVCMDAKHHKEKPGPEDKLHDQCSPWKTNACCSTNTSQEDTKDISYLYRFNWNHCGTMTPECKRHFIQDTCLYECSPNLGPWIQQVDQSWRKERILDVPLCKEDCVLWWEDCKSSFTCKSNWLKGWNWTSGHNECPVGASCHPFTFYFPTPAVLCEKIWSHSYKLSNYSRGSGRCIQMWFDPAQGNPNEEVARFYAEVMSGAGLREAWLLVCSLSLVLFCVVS
UniProt P15328, with tags, fused parts or gaps: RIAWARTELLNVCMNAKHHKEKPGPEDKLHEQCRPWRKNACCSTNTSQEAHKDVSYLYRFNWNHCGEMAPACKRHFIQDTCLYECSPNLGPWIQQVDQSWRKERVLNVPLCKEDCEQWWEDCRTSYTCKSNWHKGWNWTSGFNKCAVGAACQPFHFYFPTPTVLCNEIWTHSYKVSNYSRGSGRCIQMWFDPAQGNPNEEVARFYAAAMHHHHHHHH

Assays:
Mouse FOLR1 = Mouse FOLR1 (Mus musculus, UniProt P35846); experiment: ELISA species specificity of antibodies; assay type: binding; settings: coated antigen mouse FOLR1
Method: (§1) Each antigen was diluted to 1 μg/mL with PBS and added to a microplate (manufacturer: Corning, Catalog No.: 42592) in a volume of 100 μL per well, and the microplate was coated overnight in a refrigerator (2-8° C.). The coating solution was discarded, and 200 μL of a blocking solution (containing 5% skimmed milk powder, prepared from PBS) was added. The microplate was left to stand in an electric thermostatic incubator at 37° C. for 2 h. The blocking solution was discarded, and the microplate was washed 3 times with 0.05% PBST. Antibody dilutions at different concentrations (at an initial concentration of 6 μg/mL, 3-fold dilution, 8 concentration gradients in total, diluted with PBS) were added at 100 μL per well. The microplate was left to stand in the electric thermostatic incubator at 37° C. for 2 h. The antibody dilutions were discarded, and the microplate was washed 8 times with 0.05% PBST and patted dry. Anti-Human Kappa Light Chains (Bound and Free) peroxidase antibody Produced in goat (manufacturer: sigma, Catalog No.: A7164-1ML) diluted in a 1:10000 ratio was added at 100 µL/well. The microplate was left to stand in the electric thermostatic incubator at 37° C. for 1 h. […] The microplate was read on SpectraMax Plus Absorbance Microplate Reader with an absorption light wavelength of 450 nm.

Rat FOLR1 = Rat FOLR1 (Rattus norvegicus, UniProt Q9JL02); experiment: ELISA species specificity of antibodies; assay type: binding; settings: coated antigen rat FOLR1
Method: as §1

FRα-His = target: T1, FRα-His (Homo sapiens, UniProt P15328); experiment: Binding activity to FRα-His (Biacore); settings: Biacore T200
T1 construct: 8xHis (C); made in house; host or cells: CHO-K1
Method: • HBS-EP+(10×): purchased from GE Healthcare, cat #BR-1006-69; • Glycine pH 1.5: purchased from GE Healthcare, cat #BR100354; • Running buffer: 50 mL of HBS-EP+(10×) was taken, and 450 mL of ultrapure water was added, and the resulting solution was well mixed. • Experimental instrument: Biacore: T200, purchased from GE Healthcare.
A Protein A chip was used for the assay.
Experiment results were analyzed using data analysis software Evaluation Software 3.1. The sensing signals acquired from the experimental flow channels for the samples were subjected to double subtraction (minus values of reference flow channels and blank control), and the fitting was performed using a “1:1” kinetic model to obtain the kinetic parameters (Ka: association rate; Kd: dissociation rate; KD: equilibrium dissociation constant) for the binding of each sample to the antigens.

EC50 (Mouse FOLR1): — (“—” indicates no binding)
EC50 (Rat FOLR1): — (“—” indicates no binding)
Ka (FRα-His; association rate): 1.021e+06 M⁻¹ s⁻¹
Kd (FRα-His; dissociation rate): 0.0002927 s⁻¹
B1: Antibody 1: humanized anti-FRα antibody, heavy chain SEQ ID NO: 19, light chain SEQ ID NO: 20 (antibody)
heavy: QVQLVQSGVEVKKPGASVKVSCKASGYSFTGYFMNWVRQAPGQGLEWIGRIHPYDGDTFYNQNFKDKATLTVDKSTTTAYMELKSLQFDDTAVYYCTRYDGSRAMDYWGQGTTVTVSSASTKGPSVFPLAPSSKSTSGGTAALGCLVKDYFPEPVTVSWNSGALTSGVHTFPAVLQSSGLYSLSSVVTVPSSSLGTQTYICNVNHKPSNTKVDKKV[letters of human IgG1 Fc omitted]
light: EIVLTQSPATLSLSPGERATLSCKASQSVSFAGTSLMHWYQQKPGQAPRLLIYRASNLEAGVPARFSGSGSKTDFTLTISSLEPEDFAVYYCQQSREYPYTFGGGTKVEIKRTVAAPSVFIFPPSDEQLKSGTASVVCLLNNFYPREAKVQWKVDNALQSGNSQESVTEQDSKDSTYSLSSTLTLSKADYEKHKVYACEVTHQGLSSPVTKSFNRGEC
